For this experiment, the target named is AR (Homo sapiens, UniProt P10275). Nature of the experiment: whole cell 3H-DHT radioligand competition binding assay in HEK293/C-AR-Y cells. On the technique in general: Loss of bound radioactivity is the signal in a displacement assay; it reports binding, not function.

The chains behind the UniProt entries cited, without tags or fusion partners. Where a name states a change or a piece, a line headed by the entry shows the natural chain unless it says otherwise.
UniProt P10275: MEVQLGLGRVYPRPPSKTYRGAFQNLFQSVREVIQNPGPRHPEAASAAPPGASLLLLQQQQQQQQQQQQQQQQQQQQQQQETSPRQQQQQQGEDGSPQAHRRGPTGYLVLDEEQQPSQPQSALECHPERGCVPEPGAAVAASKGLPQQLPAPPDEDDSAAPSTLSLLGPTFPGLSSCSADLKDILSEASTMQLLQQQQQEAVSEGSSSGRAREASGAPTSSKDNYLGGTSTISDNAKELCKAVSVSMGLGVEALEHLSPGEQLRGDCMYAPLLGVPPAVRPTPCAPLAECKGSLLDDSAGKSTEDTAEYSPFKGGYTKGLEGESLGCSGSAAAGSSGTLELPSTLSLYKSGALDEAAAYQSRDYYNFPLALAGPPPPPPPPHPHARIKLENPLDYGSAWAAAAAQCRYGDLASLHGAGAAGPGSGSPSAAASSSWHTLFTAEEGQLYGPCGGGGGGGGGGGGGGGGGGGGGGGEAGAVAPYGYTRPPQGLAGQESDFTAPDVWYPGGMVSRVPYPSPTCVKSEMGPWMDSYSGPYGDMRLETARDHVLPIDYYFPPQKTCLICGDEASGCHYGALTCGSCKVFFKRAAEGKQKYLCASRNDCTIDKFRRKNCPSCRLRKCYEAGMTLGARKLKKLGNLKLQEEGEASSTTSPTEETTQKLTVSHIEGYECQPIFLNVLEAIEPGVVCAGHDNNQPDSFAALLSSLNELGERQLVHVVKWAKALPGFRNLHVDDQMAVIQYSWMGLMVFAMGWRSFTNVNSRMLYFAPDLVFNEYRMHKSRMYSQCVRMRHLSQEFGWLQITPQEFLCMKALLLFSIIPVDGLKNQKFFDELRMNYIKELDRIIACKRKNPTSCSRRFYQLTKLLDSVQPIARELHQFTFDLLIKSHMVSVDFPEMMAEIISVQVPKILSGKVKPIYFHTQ

In the case of thimerosal, the “DHT Binding IC50” value is recorded as “no effect”.

The values above are taken from publication PMC2776083 (ACS chemical biology, 2009).
